This assay concerns Cystic fibrosis transmembrane conductance regulator (Homo sapiens), P13569 [F508del]. The assay can be described thus: Corrector activity at CFTR F508del mutant (unknown origin) transfected in human HEK293 membrane cells assessed as increase in CFTR level at 3 uM incubated for 24 hrs in presence of VX-809 by using pHTomato probe based fluorescence inverted microscopic analysis relative to VX-809 alone. Type of assay: cell-based.

By UniProt entry, the sequences of proteins in these tests, tags left out. Chains listed by the source or under a name are the forms on record and can include a tag or linker.
Cystic fibrosis transmembrane conductance regulator (Homo sapiens), P13569, UniProt P13569, as listed by the source: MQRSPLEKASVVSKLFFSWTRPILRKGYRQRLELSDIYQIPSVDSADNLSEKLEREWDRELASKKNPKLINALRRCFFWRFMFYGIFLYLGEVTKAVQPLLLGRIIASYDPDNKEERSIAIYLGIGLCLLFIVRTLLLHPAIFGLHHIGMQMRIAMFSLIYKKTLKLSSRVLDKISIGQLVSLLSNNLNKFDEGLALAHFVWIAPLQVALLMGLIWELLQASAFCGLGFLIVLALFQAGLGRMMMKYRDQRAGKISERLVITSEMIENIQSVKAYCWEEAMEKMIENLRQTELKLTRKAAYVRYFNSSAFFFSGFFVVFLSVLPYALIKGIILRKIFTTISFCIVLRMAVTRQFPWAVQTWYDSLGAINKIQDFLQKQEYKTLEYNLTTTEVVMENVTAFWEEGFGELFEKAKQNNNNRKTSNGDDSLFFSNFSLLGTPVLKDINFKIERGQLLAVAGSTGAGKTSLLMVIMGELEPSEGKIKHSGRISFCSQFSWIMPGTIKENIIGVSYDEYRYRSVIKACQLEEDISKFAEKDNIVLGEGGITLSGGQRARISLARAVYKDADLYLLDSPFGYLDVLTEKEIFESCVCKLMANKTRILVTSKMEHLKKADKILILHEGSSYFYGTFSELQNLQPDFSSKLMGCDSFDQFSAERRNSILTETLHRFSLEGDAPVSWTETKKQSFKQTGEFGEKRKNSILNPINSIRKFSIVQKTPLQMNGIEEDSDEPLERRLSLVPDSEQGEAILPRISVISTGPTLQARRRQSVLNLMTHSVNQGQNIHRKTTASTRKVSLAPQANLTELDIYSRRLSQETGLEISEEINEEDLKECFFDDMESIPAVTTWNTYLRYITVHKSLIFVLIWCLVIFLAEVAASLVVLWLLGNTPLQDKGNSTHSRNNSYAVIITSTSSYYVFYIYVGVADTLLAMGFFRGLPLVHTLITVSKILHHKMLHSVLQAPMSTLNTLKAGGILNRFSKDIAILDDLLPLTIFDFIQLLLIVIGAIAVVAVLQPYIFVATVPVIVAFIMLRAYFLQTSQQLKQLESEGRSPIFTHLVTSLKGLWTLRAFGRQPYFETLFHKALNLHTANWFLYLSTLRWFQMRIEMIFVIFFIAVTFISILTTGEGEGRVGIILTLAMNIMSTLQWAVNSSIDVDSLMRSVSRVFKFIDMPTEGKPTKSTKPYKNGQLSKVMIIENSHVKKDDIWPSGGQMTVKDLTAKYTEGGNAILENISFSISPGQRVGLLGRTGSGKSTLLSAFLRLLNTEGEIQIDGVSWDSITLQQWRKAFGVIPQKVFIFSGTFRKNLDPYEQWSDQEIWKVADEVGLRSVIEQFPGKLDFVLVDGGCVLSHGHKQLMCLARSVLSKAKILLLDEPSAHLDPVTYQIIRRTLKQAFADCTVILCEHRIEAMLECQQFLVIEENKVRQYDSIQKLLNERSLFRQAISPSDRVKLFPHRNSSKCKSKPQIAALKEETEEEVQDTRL

Consider `CC(=O)c1cccc(N(CCO)c2nc(-c3sc(NC(=O)C(C)(C)C)nc3C)cs2)c1`, for which the fold change (FC) was found to be 3.

Values taken from ChEMBL document CHEMBL4321853, “Multitarget CFTR Modulators Endowed with Multiple Beneficial Side Effects for Cystic Fibrosis Patients: Toward a Simplified Therapeutic Approach †” (J Med Chem, 2019).
